Source: ChEMBL document CHEMBL1135409, “Structure-activity relationships of a novel class of endothelin-A receptor antagonists and discovery of potent and selective receptor antagonist, 2-(benzo[1,3]dioxol-5-yl)-6-isopropyloxy-4-(4-methoxyphenyl)-2H-chromene-3-carboxylic acid (S-1255). 1. Study on structure-activity relationships and …” (J Med Chem, 2002)

Protein sequences, listed by entry. Tags and fused reporters are not part of them.
UniProt P26684, whole entry: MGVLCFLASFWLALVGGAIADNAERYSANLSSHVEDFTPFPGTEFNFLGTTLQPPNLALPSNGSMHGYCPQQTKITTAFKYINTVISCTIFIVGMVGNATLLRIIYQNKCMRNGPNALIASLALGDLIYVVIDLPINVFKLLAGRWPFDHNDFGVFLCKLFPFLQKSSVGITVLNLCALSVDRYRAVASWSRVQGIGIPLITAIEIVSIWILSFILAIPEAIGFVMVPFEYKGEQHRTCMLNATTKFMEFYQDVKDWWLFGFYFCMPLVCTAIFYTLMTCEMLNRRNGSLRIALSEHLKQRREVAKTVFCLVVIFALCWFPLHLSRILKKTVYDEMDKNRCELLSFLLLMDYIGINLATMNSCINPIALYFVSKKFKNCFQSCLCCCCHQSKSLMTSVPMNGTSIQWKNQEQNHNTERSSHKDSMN

Tests used:
[1] = target: Endothelin-1 receptor (Rattus norvegicus, UniProt P26684); experiment: Binding affinity for endothelin A receptor by inhibition of [125I]ET1 binding in rat aorta smooth muscle cells; type: tissue-based
[2] = Ratio of inhibitory concentrations at ET-B receptor relative to that of ET-A receptor
[3] = target: T1, Endothelin receptor type B (Sus scrofa, UniProt P35463); experiment: Binding affinity to endothelin B receptor measured by inhibition of [125I]ET-3 binding recombinant pig ET-B receptor expressed in COS-7 cells; type: cell-based
T1 sequence (P35463 whole entry): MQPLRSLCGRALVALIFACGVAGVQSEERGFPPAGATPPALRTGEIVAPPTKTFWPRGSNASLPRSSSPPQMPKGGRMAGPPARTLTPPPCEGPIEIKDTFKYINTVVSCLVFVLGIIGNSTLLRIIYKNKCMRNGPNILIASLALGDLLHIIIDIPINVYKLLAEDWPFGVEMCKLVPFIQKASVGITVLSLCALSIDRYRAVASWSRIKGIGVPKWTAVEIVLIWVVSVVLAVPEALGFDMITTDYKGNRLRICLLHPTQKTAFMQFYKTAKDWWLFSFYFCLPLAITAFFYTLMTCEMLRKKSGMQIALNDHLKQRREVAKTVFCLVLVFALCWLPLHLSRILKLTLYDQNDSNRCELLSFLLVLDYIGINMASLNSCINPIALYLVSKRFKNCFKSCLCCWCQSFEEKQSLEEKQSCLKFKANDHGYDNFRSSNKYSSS
How it was run: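 COS cells transfected with porcine ETB cDNA, in Hank's solution with 20 mM HEPES and protease inhibitors. Stopped by filtration on GF/C filters presoaked in 1% polyethylenimine, washed with 50 mM Tris-HCl pH 7.4, then counted. Nonspecific binding taken with 0.1 μM ET-3.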

CCCCOC1=C(C(=O)O)C(c2ccc3c(c2)OCO3)Oc2cccc(OCCC)c21 (stereo unspecified)
IC50 [1]: 3.4 µM

COc1ccc(C2=C(C(=O)O)C(c3ccc4c(c3)OCO4)Oc3ccc(OC(C)C)cc32)cc1 (stereo unspecified)
Ratio [2]: 350

COc1ccc(C2=C(C(=O)O)[C@@H](c3ccc4c(c3)OCO4)Oc3ccc(OC(C)C)cc32)cc1
Ratio [2]: 630

COc1ccc(C2=C(C(=O)O)[C@H](c3ccc4c(c3)OCO4)Oc3ccc(OC(C)C)cc32)cc1
IC50 [3]: 1.5 µM | Ratio [2]: 100 | IC50 [1]: 0.015 µM
